Experimental data published in ChEMBL document CHEMBL4431392, “Treatment of Pain with Spirocylic Cyclohexane Derivatives Having Dual Specificity for ORL-1 and μ-Opioid Receptors” (2016).

The chains behind the UniProt entries cited, without tags or fusion partners.
UniProt P41146, whole entry: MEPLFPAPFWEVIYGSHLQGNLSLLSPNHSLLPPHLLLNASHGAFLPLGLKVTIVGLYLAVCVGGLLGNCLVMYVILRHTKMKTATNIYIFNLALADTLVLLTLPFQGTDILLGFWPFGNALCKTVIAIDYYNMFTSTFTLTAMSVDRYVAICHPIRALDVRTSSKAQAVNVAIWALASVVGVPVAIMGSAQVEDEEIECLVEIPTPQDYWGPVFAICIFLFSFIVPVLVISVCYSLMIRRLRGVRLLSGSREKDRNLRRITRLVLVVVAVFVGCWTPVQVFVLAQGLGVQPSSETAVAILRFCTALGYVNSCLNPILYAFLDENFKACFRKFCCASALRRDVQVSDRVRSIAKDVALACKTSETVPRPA
UniProt P35372, whole entry: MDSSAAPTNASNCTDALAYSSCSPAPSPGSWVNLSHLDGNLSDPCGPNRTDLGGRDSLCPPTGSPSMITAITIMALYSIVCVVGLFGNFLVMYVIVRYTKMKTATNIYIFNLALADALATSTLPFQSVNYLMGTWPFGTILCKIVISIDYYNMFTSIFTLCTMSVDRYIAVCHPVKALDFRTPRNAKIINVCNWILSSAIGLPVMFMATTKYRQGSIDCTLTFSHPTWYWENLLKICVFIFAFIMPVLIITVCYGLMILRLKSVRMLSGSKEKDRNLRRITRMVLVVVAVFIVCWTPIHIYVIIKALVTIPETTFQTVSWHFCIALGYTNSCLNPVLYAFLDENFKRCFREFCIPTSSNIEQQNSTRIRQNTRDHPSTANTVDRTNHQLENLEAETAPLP

Legend:
Rattus norvegicus = assay: Analgesic activity in iv dosed Sprague-Dawley rat assessed as increase in pain latency measured up to 60 mins by tail-flick assay
Nociceptin receptor = Nociceptin receptor (Homo sapiens, UniProt P41146); assay: Displacement of [3H]-nociceptin/orphanin FQ from recombinant ORL1 receptor (unknown origin) expressed in CHO cell membranes measured after 1 hr by scintillation counter method
Mu-type opioid receptor = Mu-type opioid receptor (Homo sapiens, UniProt P35372); assay: Displacement of [3H]-naloxone human mu-opioid receptor expressed in CHO-K1 cell membranes measured after 90 mins by beta-counter method

Row | Compound | ED50 (Rattus norvegicus) [µg/kg] | Ki (Nociceptin receptor) [nM] | Ki (Mu-type opioid receptor) [nM]
1 | CN(C)C1(c2ccccc2)CCC2(CCN(C(=O)CC3CCC3)C2)CC1 (centres undefined) | 4.17 | 0.4 | 0.6
2 | COC1(CCN2CC3(CCC(c4cccs4)(N(C)C)CC3)CC2=O)CCC1 (centres undefined) | 0.7 |  | 
